Biological target: T1, Oxytocin receptor (Homo sapiens) (UniProt P30559)
T1 sequence (whole entry): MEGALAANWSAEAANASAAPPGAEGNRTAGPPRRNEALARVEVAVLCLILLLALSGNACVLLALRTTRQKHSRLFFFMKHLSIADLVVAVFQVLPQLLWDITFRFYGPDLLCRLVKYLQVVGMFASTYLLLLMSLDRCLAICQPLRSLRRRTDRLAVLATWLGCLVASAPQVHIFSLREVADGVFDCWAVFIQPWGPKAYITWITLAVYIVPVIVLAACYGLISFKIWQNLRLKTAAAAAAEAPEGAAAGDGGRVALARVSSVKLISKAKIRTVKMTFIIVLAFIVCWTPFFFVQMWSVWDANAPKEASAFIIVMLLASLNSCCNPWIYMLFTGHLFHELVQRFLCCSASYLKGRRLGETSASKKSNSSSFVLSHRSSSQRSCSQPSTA
Assay: Agonist activity at recombinant human Gi/Go-coupled OTR expressed in CHOK1 cells assessed as induction of beta-arrestin recruitment measured after 90 mins in presence of 10% FBS by pathhunter assay relative to oxytocin
Type: cell-based

%max: 37%
Structure (SMILES): CC[C@H](C)[C@@H]1NC(=O)[C@H](Cc2ccc(OC)cc2)NC(=O)CCCSC[C@@H](C(=O)N2CCC[C@H]2C(=O)N[C@@H](CC(C)C)C(=O)NCC(N)=O)NC(=O)[C@H](CC(N)=O)NC(=O)[C@H](CCC(N)=O)NC1=O [CARBETOCIN]
